Measured values: US5795977A, “Water soluble adenosine kinase inhibitors” (Metabasis Therapeutics, Inc., priority 1996, dated 1998)

Target: partially purified pig heart adenosine kinase or recombinant human adenosine kinase
Assay: AK inhibition
Assay type: biochemical
Conditions: 0.5 μM [U-14C] adenosine, pH 7.0, 37° C., 20 minutes
Description: Adenosine kinase activity was measured essentially as described by Yamada et al. Biochim. Biophys. Acta 660, 36-43 (1988) with a few minor modifications. Assay mixtures contained 50 mM TRIS-maleate buffer, pH 7.0, 0.1% BSA, 1 mM ATP 1 mM MgCl2, 0.5 μM [U-^14 C] adenosine (400-600 mCi/mmol) and varying duplicate concentrations of inhibitor. […] The amount of ^14 C-AMP was quantified by scintillation counting.

IC50: 75 nM
SMILES: C[C@H]1O[C@@H](n2cc(I)c3c(NCc4ccncc4)ncnc32)[C@H](O)[C@@H]1O [Compound 42, 4-N-(4-pyridylmethylamino)-5-iodo-7-(5-deoxy-1-β-D-ribofuranosyl)pyrrolo[2,34]pyrimidine]
